The results in this text go back to patent publication US20250195530A1, “POLQ INHIBITORS” (ASTRAZENECA AB, priority 2022, published 2025).

Protein sequences, listed by entry. Tags and fused reporters are not part of them. Residues count along the entry.
UniProt O75417, 1780-2590: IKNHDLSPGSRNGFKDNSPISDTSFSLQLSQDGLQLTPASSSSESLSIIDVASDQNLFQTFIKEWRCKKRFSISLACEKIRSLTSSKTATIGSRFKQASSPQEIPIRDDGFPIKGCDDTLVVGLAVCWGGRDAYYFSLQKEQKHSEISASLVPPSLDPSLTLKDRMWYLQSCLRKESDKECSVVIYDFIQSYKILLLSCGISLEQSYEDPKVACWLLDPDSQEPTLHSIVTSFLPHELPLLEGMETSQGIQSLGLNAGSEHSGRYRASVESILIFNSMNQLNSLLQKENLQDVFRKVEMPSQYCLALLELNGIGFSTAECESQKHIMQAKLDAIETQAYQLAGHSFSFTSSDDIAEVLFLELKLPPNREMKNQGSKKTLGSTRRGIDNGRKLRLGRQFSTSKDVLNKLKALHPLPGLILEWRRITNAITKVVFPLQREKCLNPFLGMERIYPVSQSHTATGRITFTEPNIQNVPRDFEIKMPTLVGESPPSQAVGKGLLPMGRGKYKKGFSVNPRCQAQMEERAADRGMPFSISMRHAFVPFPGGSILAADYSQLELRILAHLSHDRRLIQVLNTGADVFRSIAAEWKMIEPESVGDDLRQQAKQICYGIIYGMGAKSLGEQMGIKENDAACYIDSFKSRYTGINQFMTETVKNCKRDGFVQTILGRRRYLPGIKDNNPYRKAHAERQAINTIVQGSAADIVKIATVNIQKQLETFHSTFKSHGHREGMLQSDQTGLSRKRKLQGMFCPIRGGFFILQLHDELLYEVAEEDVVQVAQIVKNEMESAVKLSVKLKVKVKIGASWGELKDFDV

For orientation: IC50 means the point on the concentration scale where inhibition reaches its midpoint.

For the assay, the target named is isolated polymerase domain (I1780-V2590) of DNA polymerase theta (Polθ) (Homo sapiens (Human), UniProt O75417). Nature of the assay: biochemical.

The compound `CC1(Oc2ncnc3c2nc(-c2ccc(OCC[C@@](C)(O)C(=O)O)cc2Cl)n3Cc2cccc(Cl)c2)CC1` [Example T301, (R)-4-(3-chloro-4-(9-(3-chlorobenzyl)-6-(1-methylcyclopropoxy)-9H-purin-8-yl)phenoxy)-2-hydroxy-2-methylbutanoic acid] showed an IC50 of 6.31 nM.

`CC1(Oc2ncnc3c2nc(-c2ccc(OCCCOCC(=O)O)cc2Cl)n3Cc2cccc(Cl)c2)CC1` [Example T302, 2-(3-(3-chloro-4-(9-(3-chlorobenzyl)-6-(1-methylcyclopropoxy)-9H-purin-8-yl)phenoxy)propoxy)acetic acid] had a 50% inhibitory concentration (IC50) of 5.01 nM.

In turn, `CC1(Oc2ncnc3c2nc(-c2ccc(OCCOCCC(=O)O)cc2Cl)n3Cc2cccc(Cl)c2)CC1` [Example T303, 3-(2-(3-chloro-4-(9-(3-chlorobenzyl)-6-(1-methylcyclopropoxy)-9H-purin-8-yl)phenoxy)ethoxy)propanoic acid] gave an IC50 of 7.94 nM.

Take `CC1(Oc2ncnc3c2nc(-c2cccc(OCCCOCC(=O)O)c2Cl)n3Cc2cccc(Cl)c2)CC1` [Example T304, 2-(3-(2-chloro-3-(9-(3-chlorobenzyl)-6-(1-methylcyclopropoxy)-9H-purin-8-yl)phenoxy)propoxy)acetic acid]: the midpoint of inhibition, the IC50, lay at 6.31 nM.

`C[C@@H](OCCOc1ccc(-c2nc3c(OC4(C)CC4)ncnc3n2Cc2cccc(Cl)c2)c(Cl)c1)C(=O)O` [Example T306, (R)-2-(2-(3-chloro-4-(9-(3-chlorobenzyl)-6-(1-methylcyclopropoxy)-9H-purin-8-yl)phenoxy)ethoxy)propanoic acid] had an IC50 of 3.16 nM.

With `CC1(Oc2ncnc3c2nc(-c2ccc(OCCN4CC(O)C4)cc2Cl)n3Cc2cc(C(F)F)ccn2)CC1` [Example T307, 1-(2-(3-chloro-4-(9-((4-(difluoromethyl)pyridin-2-yl)methyl)-6-(1-methylcyclopropoxy)-9H-purin-8-yl)phenoxy)ethyl)azetidin-3-ol], half-maximal inhibition (IC50) was put at 5.01 nM.

Regarding `Cc1ccnc(Cn2c(-c3ccc(CC(=O)N4CCC4)cc3Cl)nc3c(OC4(C)CC4)ncnc32)c1` [Example T308, 1-(azetidin-1-yl)-2-(3-chloro-4-(6-(1-methylcyclopropoxy)-9-((4-methylpyridin-2-yl)methyl)-9H-purin-8-yl)phenyl)ethan-1-one], half-maximal inhibition (IC50) was put at 6.31 nM.

As to `Cc1ccnc(Cn2c(-c3ccc(C(=O)N4CCCC4)cc3Cl)nc3c(OC4(C)CC4)ncnc32)c1` [Example T309, (3-chloro-4-(6-(1-methylcyclopropoxy)-9-((4-methylpyridin-2-yl)methyl)-9H-purin-8-yl)phenyl)(pyrrolidin-1-yl)methanone], the IC50 is 10 nM.

On to `Cc1ccnc(Cn2c(-c3ccc(CC(=O)NC4CC4)cc3Cl)nc3c(OC4(C)CC4)ncnc32)c1` [Example T310, 2-(3-chloro-4-(6-(1-methylcyclopropoxy)-9-((4-methylpyridin-2-yl)methyl)-9H-purin-8-yl)phenyl)-N-cyclopropylacetamide], for which the IC50 was 7.94 nM.

`Cc1ccnc(Cn2c(-c3ccc(C(=O)N4CC[C@@H](O)C4)cc3Cl)nc3c(OC4(C)CC4)ncnc32)c1` [Example T311, (R)-(3-chloro-4-(6-(1-methylcyclopropoxy)-9-((4-methylpyridin-2-yl)methyl)-9H-purin-8-yl)phenyl)(3-hydroxypyrrolidin-1-yl)methanone] had an IC50 of 7.94 nM.

Turning to `Cc1ccnc(Cn2c(-c3ccc(OCC(=O)N4CCC4)cc3Cl)nc3c(OC4(C)CC4)ncnc32)c1` [Example T312, 1-(azetidin-1-yl)-2-(3-chloro-4-(6-(1-methylcyclopropoxy)-9-((4-methylpyridin-2-yl)methyl)-9H-purin-8-yl)phenoxy)ethan-1-one], half-maximal inhibition (IC50) required 6.31 nM.

In turn, `Cc1ccnc(Cn2c(-c3ccc(OCCN4CCC4=O)cc3Cl)nc3c(OC4(C)CC4)ncnc32)c1` [Example T313, 1-(2-(3-chloro-4-(6-(1-methylcyclopropoxy)-9-((4-methylpyridin-2-yl)methyl)-9H-purin-8-yl)phenoxy)ethyl)azetidin-2-one] had an IC50 of 5.01 nM.

For the compound `Cc1ccnc(Cn2c(-c3ccc(C(=O)N4CC(C)(O)C4)cc3Cl)nc3c(OC4(C)CC4)ncnc32)c1` [Example T314, (3-chloro-4-(6-(1-methylcyclopropoxy)-9-((4-methylpyridin-2-yl)methyl)-9H-purin-8-yl)phenyl)(3-hydroxy-3-methylazetidin-1-yl)methanone], the IC50 is 15.8 nM.

In turn, `Cc1ccnc(Cn2c(-c3ccc(C(=O)N4CCOCC4)cc3Cl)nc3c(OC4(C)CC4)ncnc32)c1` [Example T315, (3-chloro-4-(6-(1-methylcyclopropoxy)-9-((4-methylpyridin-2-yl)methyl)-9H-purin-8-yl)phenyl)(morpholino)methanone] gave an IC50 of 79.4 nM.

On to `Cc1ccnc(Cn2c(-c3ccc(C(=O)N[C@@H]4CCOC4)cc3Cl)nc3c(OC4(C)CC4)ncnc32)c1` [Example T316, (R)-3-chloro-4-(6-(1-methylcyclopropoxy)-9-((4-methylpyridin-2-yl)methyl)-9H-purin-8-yl)-N-(tetrahydrofuran-3-yl)benzamide], for which half-maximal inhibition (IC50) was put at 12.6 nM.

For the compound `Cc1ccnc(Cn2c(-c3ccc(C(=O)NC4(C)COC4)cc3Cl)nc3c(OC4(C)CC4)ncnc32)c1` [Example T317, 3-chloro-4-(6-(1-methylcyclopropoxy)-9-((4-methylpyridin-2-yl)methyl)-9H-purin-8-yl)-N-(3-methyloxetan-3-yl)benzamide], 20 nM corresponded to half-maximal inhibition (IC50).

Take `Cc1ccnc(Cn2c(-c3ccc(OCC(=O)NC4CC4)cc3Cl)nc3c(OC4(C)CC4)ncnc32)c1` [Example T318, 2-(3-chloro-4-(6-(1-methylcyclopropoxy)-9-((4-methylpyridin-2-yl)methyl)-9H-purin-8-yl)phenoxy)-N-cyclopropylacetamide]: the IC50 was 10 nM.

Consider `Cc1ccnc(Cn2c(-c3ccc(C(=O)NC4CC(O)C4)cc3Cl)nc3c(OC4(C)CC4)ncnc32)c1` (stereo not drawn) [Example T319, 3-chloro-N-(3-hydroxycyclobutyl)-4-(6-(1-methylcyclopropoxy)-9-((4-methylpyridin-2-yl)methyl)-9H-purin-8-yl)benzamide], for which the IC50 was 7.94 nM.

For `Cc1ccnc(Cn2c(-c3ccc(C(=O)N(C)C4COC4)cc3Cl)nc3c(OC4(C)CC4)ncnc32)c1` [Example T320, 3-chloro-N-methyl-4-(6-(1-methylcyclopropoxy)-9-((4-methylpyridin-2-yl)methyl)-9H-purin-8-yl)-N-(oxetan-3-yl)benzamide], the IC50 was 25.1 nM.

For `Cc1ccnc(Cn2c(-c3ccc(OCC(=O)N4CC(O)C4)cc3Cl)nc3c(OC4(C)CC4)ncnc32)c1` [Example T322, 2-(3-chloro-4-(6-(1-methylcyclopropoxy)-9-((4-methylpyridin-2-yl)methyl)-9H-purin-8-yl)phenoxy)-1-(3-hydroxyazetidin-1-yl)ethan-1-one], the half-maximal inhibitory concentration (IC50) is 7.94 nM.

Regarding `Cc1ccnc(Cn2c(-c3ccc(OCC(=O)NC4COC4)cc3Cl)nc3c(OC4(C)CC4)ncnc32)c1` [Example T323, 2-(3-chloro-4-(6-(1-methylcyclopropoxy)-9-((4-methylpyridin-2-yl)methyl)-9H-purin-8-yl)phenoxy)-N-(oxetan-3-yl)acetamide], the IC50 is 7.94 nM.

`Cc1ccnc(Cn2c(-c3ccc(OC[C@@H]4CNC(=O)CO4)cc3Cl)nc3c(OC4(C)CC4)ncnc32)c1` [Example T324, (S)-6-((3-chloro-4-(6-(1-methylcyclopropoxy)-9-((4-methylpyridin-2-yl)methyl)-9H-purin-8-yl)phenoxy)methyl)morpholin-3-one]: it took 3.98 nM to reach half-maximal inhibition (IC50).

In turn, `CC1(Oc2ncnc3c2nc(-c2cccc(OCCCC(=O)NS(C)(=O)=O)c2Cl)n3Cc2cccc(Cl)c2)CC1` [Example T325, 4-(2-chloro-3-(9-(3-chlorobenzyl)-6-(1-methylcyclopropoxy)-9H-purin-8-yl)phenoxy)-N-(methylsulfonyl)butanamide] had an IC50 of 5.01 nM.

In turn, `CC1(Oc2ncnc3c2nc(-c2ccc(OCCCC(=O)NS(C)(=O)=O)cc2Cl)n3Cc2cccc(Cl)c2)CC1` [Example T326, 4-(3-chloro-4-(9-(3-chlorobenzyl)-6-(1-methylcyclopropoxy)-9H-purin-8-yl)phenoxy)-N-(methylsulfonyl)butanamide] had a half-maximal inhibitory concentration (IC50) of 3.16 nM.

The compound `Cc1ccnc(Cn2c(-c3ccc(OCC(=O)NC[C@H](C)F)cc3Cl)nc3c(OC4(C)CC4)ncnc32)c1` [Example T327, (S)-2-(3-chloro-4-(6-(1-methylcyclopropoxy)-9-((4-methylpyridin-2-yl)methyl)-9H-purin-8-yl)phenoxy)-N-(2-fluoropropyl)acetamide] gave an IC50 of 10 nM.

`Cc1ccnc(Cn2c(-c3ccc(OCC(=O)NCCCF)cc3Cl)nc3c(OC4(C)CC4)ncnc32)c1` [Example T328, 2-(3-chloro-4-(6-(1-methylcyclopropoxy)-9-((4-methylpyridin-2-yl)methyl)-9H-purin-8-yl)phenoxy)-N-(3-fluoropropyl)acetamide] showed an IC50 of 10 nM.

For `CN(C)CCCOc1ccc(-c2nc3c(OC4(C)CC4)ncnc3n2Cc2cc(C(F)(F)F)ccn2)c(Cl)c1` [Example T329, 3-(3-chloro-4-(6-(1-methylcyclopropoxy)-9-((4-(trifluoromethyl)pyridin-2-yl)methyl)-9H-purin-8-yl)phenoxy)-N,N-dimethylpropan-1-amine], the IC50 is 2.51 nM.

The compound `COC1(COc2ccc(-c3nc4c(OC5(C)CC5)ncnc4n3Cc3cc(C)ccn3)c(Cl)c2)COC1` [Example T333, 8-(2-chloro-4-((3-methoxyoxetan-3-yl)methoxy)phenyl)-6-(1-methylcyclopropoxy)-9-((4-methylpyridin-2-yl)methyl)-9H-purine] gave an IC50 of 10 nM.

Compound `Cc1ccnc(Cn2c(-c3ccc(OCCC4(O)COC4)cc3Cl)nc3c(OC4(C)CC4)ncnc32)c1` [Example T334, 3-(2-(3-chloro-4-(6-(1-methylcyclopropoxy)-9-((4-methylpyridin-2-yl)methyl)-9H-purin-8-yl)phenoxy)ethyl)oxetan-3-ol] had an IC50 of 6.31 nM.

`Cc1ccnc(Cn2c(-c3ccc(OC4CCS(=O)(=O)CC4)cc3Cl)nc3c(OC4(C)CC4)ncnc32)c1` [Example T335, 4-(3-chloro-4-(6-(1-methylcyclopropoxy)-9-((4-methylpyridin-2-yl)methyl)-9H-purin-8-yl)phenoxy)tetrahydro-2H-thiopyran 1,1-dioxide] had an IC50 of 6.31 nM.
